The source of these data is patent US10266537B2, “3-acetylenyl-pyrazole-pyrimidine derivative, and preparation method therefor and uses thereof” (Si Chuan University, priority 2015, dated 2019).

The chains behind the UniProt entries cited, without tags or fusion partners. Where a name states a change or a piece, a line headed by the entry shows the natural chain unless it says otherwise. Residues count along the entry.
UniProt P04629, 33-796: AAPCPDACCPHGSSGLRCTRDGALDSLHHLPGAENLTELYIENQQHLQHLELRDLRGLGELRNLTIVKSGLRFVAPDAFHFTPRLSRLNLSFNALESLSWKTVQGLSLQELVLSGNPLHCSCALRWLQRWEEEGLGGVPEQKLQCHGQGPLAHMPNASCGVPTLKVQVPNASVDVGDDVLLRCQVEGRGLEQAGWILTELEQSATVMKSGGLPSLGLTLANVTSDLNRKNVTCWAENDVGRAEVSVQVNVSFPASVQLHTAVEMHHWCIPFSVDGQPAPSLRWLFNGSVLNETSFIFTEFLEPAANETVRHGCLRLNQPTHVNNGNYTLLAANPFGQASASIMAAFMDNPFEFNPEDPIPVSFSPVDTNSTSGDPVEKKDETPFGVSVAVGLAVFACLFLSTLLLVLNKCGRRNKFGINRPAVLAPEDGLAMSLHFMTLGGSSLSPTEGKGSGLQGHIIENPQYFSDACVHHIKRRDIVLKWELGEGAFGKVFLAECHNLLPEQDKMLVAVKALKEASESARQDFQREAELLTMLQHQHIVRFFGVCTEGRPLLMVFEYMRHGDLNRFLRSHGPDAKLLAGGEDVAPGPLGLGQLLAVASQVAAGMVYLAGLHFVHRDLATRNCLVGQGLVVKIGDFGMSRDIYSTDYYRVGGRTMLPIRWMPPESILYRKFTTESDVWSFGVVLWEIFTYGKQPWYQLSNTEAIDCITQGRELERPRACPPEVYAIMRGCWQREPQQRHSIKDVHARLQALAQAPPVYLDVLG
UniProt P42685: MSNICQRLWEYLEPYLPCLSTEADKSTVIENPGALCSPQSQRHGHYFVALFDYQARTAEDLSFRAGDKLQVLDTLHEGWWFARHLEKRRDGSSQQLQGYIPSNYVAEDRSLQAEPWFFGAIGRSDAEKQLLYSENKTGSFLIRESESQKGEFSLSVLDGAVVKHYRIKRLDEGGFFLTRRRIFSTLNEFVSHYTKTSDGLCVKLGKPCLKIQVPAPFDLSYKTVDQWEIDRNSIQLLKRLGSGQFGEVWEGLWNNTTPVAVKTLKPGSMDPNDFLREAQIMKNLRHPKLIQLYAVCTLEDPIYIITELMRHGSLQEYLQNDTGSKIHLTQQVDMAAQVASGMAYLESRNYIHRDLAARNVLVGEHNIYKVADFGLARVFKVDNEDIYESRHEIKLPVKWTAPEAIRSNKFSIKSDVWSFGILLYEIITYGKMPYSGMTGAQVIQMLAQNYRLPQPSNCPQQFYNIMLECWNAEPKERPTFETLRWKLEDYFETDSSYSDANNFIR

As usually defined, the IC50 is the concentration needed to halve the response being measured. Read a low IC50 as inhibition by little substance.

Structures are written as SMILES.

For one data set, the target named is TrkA (Homo sapiens (Human), UniProt P04629). As to the kind of experiment: Kinase inhibition assay (KinaseProfiler, 33P-ATP). It is filed as biochemical. The settings on record: ATP at Km.
The test system of data set [1] is breast cancer cell line MDA-MB-231. The data set is classed as in vivo. The settings on record: nude mice, test dose range, daily oral.
The next data set concerns the target c-RAF (Homo sapiens (Human), UniProt P04049). The experiment in a line: Kinase inhibition assay (KinaseProfiler, 33P-ATP). It is filed as biochemical. The note with it: ATP at Km.
A further data set deals with PTK5 (Homo sapiens (Human), UniProt P42685). The experiment in a line: Kinase inhibition assay (KinaseProfiler, 33P-ATP). The settings on record: ATP at Km.

Consider `CCn1nc(C#Cc2cc(C(=O)Nc3ccc(CN4CCN(C)CC4)c(C(F)(F)F)c3)ccc2C)c2c(N)ncnc21` [Compound 3], for which the IC50 against TrkA and against c-RAF was 27 nM each time. In addition, the “toxicity / side effects (weight loss, rash, diarrhea) during administration” value in data set [1] is “low toxicity”.

Regarding `Cc1ccc(NC(=O)c2ccc(C)c(C(F)(F)F)c2)cc1C#Cc1nn([C@H]2CC[C@H](O)CC2)c2ncnc(N)c12` [Compound 93], 19 nM corresponded to half-maximal inhibition on PTK5 (IC50).
